Chains of the proteins cited; added tags and fusions are not shown. Lines headed by an entry give the natural chain unless they say otherwise; changes in a name come on top.
UniProt Q4WLV6: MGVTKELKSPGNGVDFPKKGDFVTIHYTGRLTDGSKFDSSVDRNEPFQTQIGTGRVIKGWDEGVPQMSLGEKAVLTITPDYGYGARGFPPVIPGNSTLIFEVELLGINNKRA

In PMC6753081 (Nature Communications, 2019):

Molecular target: T1, AfFKBP12 (Aspergillus fumigatus, UniProt Q4WLV6)
T1 construct: gene fpr1A
Details: pH […] °C, […] phosphate, […] NaCl; […] protein

## C=CC[C@@H]1/C=C(\C)C[C@H](C)C[C@H](OC)[C@H]2O[C@@](O)(C(=O)C(=O)N3CCCC[C@H]3C(=O)O[C@H](/C(C)=C/[C@@H]3CC[C@@H](O)[C@H](OC)C3)[C@H](C)[C@@H](O)CC1=O)[C@H](C)C[C@@H]2OC [FK506]
  1H-15N HSQC NMR titration: AfFKBP12 residues Ile25, His26, Tyr27, Val102, and Glu103 showed large chemical shift factors
